Data as given in patent US9079866B2, “Flap modulators” (JANSSEN PHARMACEUTICA NV, priority 2013, dated 2015).
Counter-ions that a name gives are not always drawn.

The chains behind the UniProt entries cited, without tags or fusion partners. Where a name states a change or a piece, a line headed by the entry shows the natural chain unless it says otherwise.
UniProt P20292: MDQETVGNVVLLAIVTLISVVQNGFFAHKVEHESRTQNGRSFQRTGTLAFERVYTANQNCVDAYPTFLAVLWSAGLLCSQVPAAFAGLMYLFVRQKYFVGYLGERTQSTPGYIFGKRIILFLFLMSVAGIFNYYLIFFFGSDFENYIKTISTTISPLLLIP

target: human FLAP (Homo sapiens (Human), UniProt P20292); assay: FLAP binding assay (HTRF format); settings: human FLAP wild type, average of two plates, duplicates
Procedure: The ability of the compounds of the present invention to treat a FLAP-mediated disease and/or disorder, or associated symptoms or complications thereof, was determined using the following procedures. Binding assay data represent the average value obtained from two different assay plates, with samples run in duplicate on each plate. Human whole blood assay data represent a single replicate on an assay plate using whole blood from at least one healthy donor.
Data are expressed as a HTRF ratio.

Row | Structure (SMILES) | Ki
1 | Nc1cnc(-c2ccc(-c3ccccc3S(=O)(=O)N[C@H]3CCCCNC3=O)cc2F)cn1 (stereo in doubt) [Example 28, (S)-4′-(5-Aminopyrazin-2-yl)-3′-fluoro-N-[(3S)-2-oxoazepan-3-yl]biphenyl-2-sulfonamide] | 90 nM
2 | N#CC1CCCN(S(=O)(=O)c2ccccc2-c2ccc(-c3cnc(N)cn3)c(F)c2)C1 (racemic) [Example 63, racemic 1-{[4′-(5-Aminopyrazin-2-yl)-3′-fluorobiphenyl-2-yl]sulfonyl}piperidine-3-carbonitrile] | 6 nM
3 | C[C@H](NS(=O)(=O)c1ccccc1-c1ccc(-c2cnc(N)cn2)c(F)c1)c1ccccc1 [Example 24, (R)-4′-(5-Aminopyrazin-2-yl)-3′-fluoro-N-[(1R)-1-phenylethyl]biphenyl-2-sulfonamide] | 2 nM
4 | Nc1cnc(-c2ccc(-c3ccccc3S(=O)(=O)N3CCCC(O)C3)cc2F)cn1 (racemic) [Example 70, racemic 1-{[4′-(5-Aminopyrazin-2-yl)-3′-fluorobiphenyl-2-yl]sulfonyl}piperidin-3-ol] | 2 nM
5 | Nc1cnc(-c2ccc(-c3ccccc3S(=O)(=O)N3CCCC(CO)C3)cc2F)cn1 (racemic) [Example 76, racemic (1-{[4′-(5-Aminopyrazin-2-yl)-3′-fluorobiphenyl-2-yl]sulfonyl}piperidin-3-yl)methanol] | 2 nM
6 | Nc1cnc(-c2ccc(-c3ccccc3S(=O)(=O)N3C[C@H](O)[C@@H](N4CCOCC4)C3)cc2F)cn1 (racemic) [Example 187, Racemic-1-{[4′-(5-Aminopyrazin-2-yl)-3′-fluorobiphenyl-2-yl]sulfonyl}-4-morpholin-4-ylpyrrolidin-3-ol trifluoroacetic acid salt] | 66 nM

same assay, conditions: wild type FLAP

Row | Structure (SMILES) | Ki
7 | NCCOc1ccccc1-c1ccc(-c2cnc(N)cn2)c(F)c1 [Example 640, 5-[2′-(2-Aminoethoxy)-3-fluorobiphenyl-4-yl]pyrazin-2-amine] | 1340 nM
8 | CC(C)(C(N)=O)S(=O)(=O)c1ccccc1-c1ccc(-c2cnc(N)cn2)c(F)c1 [Example 736, 2-{[4′-(5-Aminopyrazin-2-yl)-3′-fluorobiphenyl-2-yl]sulfonyl}-2-methylpropanamide] | 330 nM
9 | Nc1ncc(-c2ccc(-c3ccccc3S(=O)(=O)N3CCCC(O)C3)cc2F)cc1F (racemic) [Example 668, (racemic)-1-((4′-(6-Amino-5-fluoropyridin-3-yl)-3′-fluoro-[1,1′-biphenyl]-2-yl)sulfonyl)piperidin-3-ol] | 23 nM
10 | N#Cc1nc(N)cnc1-c1ccc(-c2ccccc2Oc2nccc(N)n2)cc1F [Example 745, 6-Amino-3-{2′-[(4-aminopyrimidin-2-yl)oxy]-3-fluorobiphenyl-4-yl}pyrazine-2-carbonitrile] | 11.7 nM
11 | N#Cc1nc(N)cnc1-c1ccc(-c2ccc(C(F)(F)F)cc2S(=O)(=O)N2CCNC(=O)C2)cc1F [Example 715, 6-Amino-3-{3-fluoro-2′-[(3-oxopiperazin-1-yl)sulfonyl]-4′-(trifluoromethyl)biphenyl-4-yl}pyrazine-2-carbonitrile] | 8.2 nM
12 | Nc1cnc(-c2ccc(-c3ccccc3C(=O)NCCO)cc2F)cn1 [Example 760, 4′-(5-Aminopyrazin-2-yl)-3′-fluoro-N-(2-hydroxyethyl)biphenyl-2-carboxamide] | 1160 nM
13 | CC(C)(C)C(=O)CS(=O)(=O)c1ccccc1-c1ccc(-c2cnc(N)nc2)c(F)c1 [Example 717, 1-{[4′-(2-Aminopyrimidin-5-yl)-3′-fluorobiphenyl-2-yl]sulfonyl}-3,3-dimethylbutan-2-one] | 1010 nM
14 | COc1c(-c2ccccc2NS(C)(=O)=O)ccc(-c2cnc(N)cn2)c1F [Example 837, N-[4′-(5-Aminopyrazin-2-yl)-3′-fluoro-2′-methoxybiphenyl-2-yl]methanesulfonamide] | ~1750 nM
15 | Nc1cnc(-c2ccc(-c3ccccc3C(=O)NC3CCC(O)CC3)cc2F)cn1 (mixture of isomers) [Example 763, (cis/trans) 4′-(5-Aminopyrazin-2-yl)-3′-fluoro-N-(4-hydroxycyclohexyl)biphenyl-2-carboxamide] | 1110 nM
16 | CCC(C)S(=O)(=O)c1ncccc1-c1ccc(-c2cnc(N)cn2)c(F)c1 (racemic) [Example 814, racemic 5-(4-(2-(sec-Butylsulfonyl)pyridin-3-yl)-2-fluorophenyl)pyrazin-2-amine formate] | 2.8 nM
17 | CC(=O)NC1CCN(S(=O)(=O)c2ccccc2-c2ccc(-c3cnc(N)c(F)c3)c(F)c2)CC1 [Example 670, N-(1-((4′-(6-Amino-5-fluoropyridin-3-yl)-3′-fluoro-[1,1′-biphenyl]-2-yl)sulfonyl)piperidin-4-yl)acetamide] | 97.7 nM
18 | CC1CN(C(=O)c2ccccc2-c2ccc(-c3cnc(N)cn3)c(F)c2)CC(C)O1 (mixture of isomers) [Example 773, 5-{2′-[(2,6-Dimethylmorpholin-4-yl)carbonyl]-3-fluorobiphenyl-4-yl}pyrazin-2-amine (diastereoisomeric mixture)] | 223 nM
19 | CCC(C)S(=O)(=O)c1ncccc1-c1ccc(-c2cnc(N)nc2)c(F)c1 (racemic) [Example 813, racemic 5-(4-(2-(sec-Butylsulfonyl)pyridin-3-yl)-2-fluorophenyl)pyrimidin-2-amine formate] | 33.9 nM
